# The list is not random: actives were taken first. Their share in the collection is about 1.7%.
# Yeast UUG start: alters start codon recognition fidelity in yeast; S. cerevisiae UUG-firefly luciferase reporter, luminescence/redox ratio; activity score, % at 18.7 µM; actives 0.13% (n = 350,000); AID 602363;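 active = replicate mean at a twofold rise or more, about +100% in these data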;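 also: firefly luciferase made from a UUG start codon reports start codon fidelity; reporter light over untreated wells divided by growth signal over untreated wells; some hits fall short of that in this replicate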
# dFosB act: activators of mouse delta FosB homodimer. P13346. purified delta FosB, TAMRA-CDK5 oligo fluorescence polarization; percent of positive-control signal above neutral wells. activation, % at 25 µM. 0.99% of 340,000 active. AID 493131;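 active means mean activation above about 17%, with every replicate also reaching it, limit read from the data, passing the limit was not always enough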
# DYRK1A inh: blocks rat Dyrk1A kinase activity | AID 504441 | 0.43% of 310,000 active | inhibition, % at 12.5 µM | ADP-Glo luminescence, NFATc1 peptide | Q63470; in the data active means inhibition above about 50%;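 further: plate controls were vehicle with enzyme for no effect and no enzyme for full effect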
# CDK5 inh: blocks human CDK5/p35 kinase activity; 0.01% of 330,000 active; Recombinant CDK5/p35, ADP-Glo luminescence, 60 min; inhibition, % at 10 µM; Q00535+Q15078;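 active means highest replicate inhibition of at least 50% and at least 75% of replicates reaching 50%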;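 further: plate controls were DMSO neutral control for no effect and GW8510 at 10 µM for full effect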
# CAL PDZ FP-1: blocks peptide binding to the human CAL PDZ domain; purified CAL PDZ, TMR-peptide fluorescence polarization, 1 h; inhibition, % at 24.9 µM; 0.92% of 300,000 active; AID 602252;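 active means mean inhibition of at least 30% with at least half of replicates also reaching 30%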;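 further: 0% = DMSO neutral control and 100% = excess unlabeled competitor peptide PRC23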
# CAL PDZ FP-2: human CAL PDZ-peptide interaction inhibition. purified CAL PDZ, TMR-peptide fluorescence polarization, 1 h. 0.02% of 330,000 active. AID 504414. inhibition, % at 20 µM. Q9HD26;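 active means highest replicate inhibition of at least 40%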;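 further: plate controls were DMSO neutral control wells for no effect and unlabeled competitor peptide control wells for full effect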
#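 Assay system – tagged CAL PDZ protein CerCALP, purified · Timing – 1 h at RT · Compound – single point, 20 µM · Measured by – fluorescence polarization from S- and P-plane intensities, G-factor corrected · Evaluation – inhibition from polarization loss · Probe or stimulus – TMR reporter peptide T*-PRC34 · Buffer or medium – pH 7.4 phosphate-saline buffer, reducing agent, detergent, IgG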
# Numbers without * were called inactive; . = no result given; + = active, no number.
# Letter code – A = Yeast UUG start; B = dFosB act; C = DYRK1A inh; D = CDK5 inh; E = CAL PDZ FP-1; F = CAL PDZ FP-2
1) CCCNC(=O)C1CCC(CNS(=O)(=O)c2ccc3c(c2)CC(C)N3C(C)=O)CC1 (configuration not stated)
  A = 1	B = -6	C = 2	D = 1	E = 82*	F = 0

2) CCN1C(=O)[C@@H]2[C@@H](c3ccc(-c4ccc(Cl)c(Cl)c4)cc3)N3CCC[C@@]3(C(=O)OC)[C@@H]2C1=O
  A = -11	B = 1	C = 3	D = 0	E = -3	F = -1

3) CCN1C(=O)[C@H]2[C@@H](c3ccc(-c4ccc(Cl)c(Cl)c4)cc3)N3CCCC[C@@]3(C(=O)OC)[C@H]2C1=O
  A = -10	B = 0	C = -2	D = -1	E = 35*	F = -1

4) COc1ccc2[nH]c(O)c(N=NC(=O)c3ccc(NS(=O)(=O)c4cccs4)cc3)c2c1
  A = -4	B = -24	C = -5	D = 1	E = 46*	F = -1

5) CC(C)n1cnc2c(NCc3ccc(S(N)(=O)=O)cc3)nc(NCc3ccc(S(N)(=O)=O)cc3)nc21
  A = -19	B = 6	C = 11	D = 2	E = -1	F = 1

6) C=CC(=O)Nc1cccc(Nc2nc(N[C@H]3CC[C@H](N(C)C)CC3)nc3c2ncn3C(C)C)c1
  A = -11	B = 22*	C = 88*	D = 83*	E = -2	F = 3

7) CO[C@@H]1CN(C)C(=O)c2cc(NC(=O)Nc3ccccc3F)ccc2OC[C@H](C)N(CC2CC2)C[C@H]1C
  A = 18	B = .	C = .	D = .	E = .	F = .

8) CC(C)NC(=O)Nc1ccc2c(c1)CC(=O)N([C@@H](C)CO)C[C@@H](C)[C@@H](CN(C)C(=O)Nc1ccccc1)O2
  A = 5	B = .	C = .	D = .	E = .	F = .

9) COc1ccc(CNCc2c(O)c(Cl)cc3c(C)c(C)c(=O)oc23)c(OC)c1
  A = 2	B = -2	C = 0	D = 0	E = 32*	F = -1

10) CCc1cc(=O)oc2c(CNCc3ccc(OC)cc3OC)c(O)c(Cl)cc12
  A = 0	B = -4	C = -1	D = 0	E = -5	F = -1

# Overlap with the part before: two compounds, followed by the next part.
# Letter code – A = Yeast UUG start; B = dFosB act; C = DYRK1A inh; D = CDK5 inh; E = CAL PDZ FP-1; F = CAL PDZ FP-2
9) COc1ccc(CNCc2c(O)c(Cl)cc3c(C)c(C)c(=O)oc23)c(OC)c1
  A = 2	B = -2	C = 0	D = 0	E = 32*	F = -1

10) CCc1cc(=O)oc2c(CNCc3ccc(OC)cc3OC)c(O)c(Cl)cc12
  A = 0	B = -4	C = -1	D = 0	E = -5	F = -1

11) CCS(=O)(=O)N1CCN(S(=O)(=O)c2ccccc2[N+](=O)[O-])CC1
  A = .	B = -2	C = -1	D = 1	E = -6	F = 0

12) CSc1ccccc1NC(=O)CN1CCN(S(=O)(=O)c2ccccc2[N+](=O)[O-])CC1
  A = 7	B = -6	C = .	D = 0	E = +	F = -1

13) Cn1c(Cc2cccs2)n[nH]c1=S
  A = -11	B = 0	C = -2	D = 1	E = 38*	F = 0

14) COc1ccccc1NC(=S)N(Cc1ccc(C(=O)O)cc1)Cc1ccc(OC)c(OC)c1
  A = -10	B = 3	C = 4	D = -3	E = 50*	F = 0

15) COCC#Cc1cnc2c(c1)C(=O)N([C@H](C)CO)C[C@H](C)[C@@H](CN(C)C(=O)C1CCC1)O2
  A = 5	B = .	C = .	D = .	E = .	F = .

16) COc1ccc(NC(=O)Nc2c[nH]c(=O)[nH]c2=O)cc1
  A = -1	B = -3	C = 6	D = 0	E = 59*	F = -1

17) O=C(C[C@@H]1C[C@H]2c3cc(NC(=O)C4CCC4)ccc3O[C@H]2[C@@H](CO)O1)NC1CCCCC1
  A = 6	B = .	C = .	D = .	E = .	F = .

18) C[C@@H]1CN([C@H](C)CO)C(=O)c2cc(C#C[C@@H](C)O)cnc2O[C@H]1CN(C)Cc1ccccn1
  A = -25	B = .	C = .	D = .	E = .	F = .

19) COc1ccccc1N(CC(=O)N1CCCC1)S(=O)(=O)c1ccc(C)cc1
  A = 10	B = 4	C = 1	D = -1	E = -4	F = -2

20) COc1ccccc1N(CC(=O)N1CCN(c2ccc(F)cc2)CC1)S(=O)(=O)c1ccc(C)cc1
  A = -14	B = -7	C = -3	D = 1	E = 55*	F = -2

# Further structures:
# Letter code – A = Yeast UUG start; B = dFosB act; C = DYRK1A inh; D = CDK5 inh; E = CAL PDZ FP-1; F = CAL PDZ FP-2
21) Cc1ccc(Nc2nc(N)nc(-c3oc4ccccc4c3C)n2)cc1
  A = .	B = 76*	C = 4	D = 1	E = 3	F = 1

22) O=C(C[C@H]1CC[C@H](NC(=O)C2CCOCC2)[C@@H](CO)O1)Nc1nccs1
  A = -6	B = .	C = .	D = .	E = .	F = .

23) Cc1ccc(S(=O)(=O)Nc2ccc3c(c2)CC(=O)N([C@@H](C)CO)C[C@H](C)[C@@H](CN(C)C(=O)Nc2ccc4c(c2)OCO4)O3)cc1
  A = -1	B = .	C = .	D = .	E = .	F = .

24) COCC(=O)N1CC[C@@H]2[C@H]1c1cc(-c3cccc(OC)c3)ccc1N(C)[C@H]2CO
  A = 0	B = .	C = .	D = .	E = .	F = .

25) O=C(Cc1cccc2ccccc12)NC(=S)Nc1cccc(C(=O)O)c1
  A = .	B = -5	C = 3	D = -3	E = -4	F = -1

26) O=C(Cc1cccc2ccccc12)Nc1cc(C(=O)O)cc(C(=O)O)c1
  A = -7	B = -4	C = 1	D = 0	E = 44*	F = -1

27) O=C(CSc1nnc(-c2ccc(Br)cc2)n1C1CCCCC1)N1CCCC1
  A = -14	B = -8	C = 2	D = -1	E = 56*	F = -1

28) O=C(CSc1nnc(-c2ccc(Cl)cc2Cl)n1C1CCCCC1)N1CCCC1
  A = -18	B = -2	C = 3	D = 1	E = 53*	F = -1

# Screens (PubChem BioAssay)
